Reference: ChEMBL document CHEMBL4622954, “Structural manipulation of aporphines via C10 nitrogenation leads to the identification of new 5-HT7AR ligands” (Bioorg Med Chem, 2020)

Amino acid sequences for entries named in this document (tags omitted).
UniProt P21918, whole entry: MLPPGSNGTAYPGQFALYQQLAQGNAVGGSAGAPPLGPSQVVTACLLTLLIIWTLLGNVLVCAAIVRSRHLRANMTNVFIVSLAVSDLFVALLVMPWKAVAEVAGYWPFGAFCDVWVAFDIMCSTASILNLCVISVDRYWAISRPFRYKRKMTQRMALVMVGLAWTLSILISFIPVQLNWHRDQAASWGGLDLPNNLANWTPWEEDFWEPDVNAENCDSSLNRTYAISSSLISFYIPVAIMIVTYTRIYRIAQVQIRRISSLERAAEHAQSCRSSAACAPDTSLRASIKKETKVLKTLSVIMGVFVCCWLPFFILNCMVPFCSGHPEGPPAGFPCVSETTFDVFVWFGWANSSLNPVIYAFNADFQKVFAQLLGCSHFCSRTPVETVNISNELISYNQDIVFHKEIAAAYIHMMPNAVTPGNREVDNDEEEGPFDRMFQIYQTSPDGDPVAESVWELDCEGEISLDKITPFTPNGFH
UniProt P50406, whole entry: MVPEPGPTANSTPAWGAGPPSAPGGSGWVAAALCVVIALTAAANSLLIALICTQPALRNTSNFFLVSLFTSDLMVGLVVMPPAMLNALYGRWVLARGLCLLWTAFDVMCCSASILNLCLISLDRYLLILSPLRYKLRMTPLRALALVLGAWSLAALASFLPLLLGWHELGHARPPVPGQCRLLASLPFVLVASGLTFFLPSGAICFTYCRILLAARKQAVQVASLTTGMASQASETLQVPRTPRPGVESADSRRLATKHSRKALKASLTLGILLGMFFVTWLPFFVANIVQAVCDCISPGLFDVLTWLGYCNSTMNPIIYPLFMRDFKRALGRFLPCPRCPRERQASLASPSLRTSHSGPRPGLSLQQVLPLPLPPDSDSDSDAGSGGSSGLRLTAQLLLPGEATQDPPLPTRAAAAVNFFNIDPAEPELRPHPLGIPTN
UniProt P14416, whole entry: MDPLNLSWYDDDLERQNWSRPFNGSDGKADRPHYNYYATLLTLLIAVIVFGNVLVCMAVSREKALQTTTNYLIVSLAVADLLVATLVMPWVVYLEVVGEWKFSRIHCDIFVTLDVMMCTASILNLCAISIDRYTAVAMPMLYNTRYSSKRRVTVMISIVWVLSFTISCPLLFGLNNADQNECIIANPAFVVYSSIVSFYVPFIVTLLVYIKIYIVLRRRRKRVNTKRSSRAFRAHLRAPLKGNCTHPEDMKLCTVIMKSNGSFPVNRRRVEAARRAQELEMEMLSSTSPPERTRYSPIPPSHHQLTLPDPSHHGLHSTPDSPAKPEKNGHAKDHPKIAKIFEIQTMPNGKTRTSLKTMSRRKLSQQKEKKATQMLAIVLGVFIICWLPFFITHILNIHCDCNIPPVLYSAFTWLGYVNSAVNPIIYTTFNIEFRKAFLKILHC
UniProt P21917, whole entry: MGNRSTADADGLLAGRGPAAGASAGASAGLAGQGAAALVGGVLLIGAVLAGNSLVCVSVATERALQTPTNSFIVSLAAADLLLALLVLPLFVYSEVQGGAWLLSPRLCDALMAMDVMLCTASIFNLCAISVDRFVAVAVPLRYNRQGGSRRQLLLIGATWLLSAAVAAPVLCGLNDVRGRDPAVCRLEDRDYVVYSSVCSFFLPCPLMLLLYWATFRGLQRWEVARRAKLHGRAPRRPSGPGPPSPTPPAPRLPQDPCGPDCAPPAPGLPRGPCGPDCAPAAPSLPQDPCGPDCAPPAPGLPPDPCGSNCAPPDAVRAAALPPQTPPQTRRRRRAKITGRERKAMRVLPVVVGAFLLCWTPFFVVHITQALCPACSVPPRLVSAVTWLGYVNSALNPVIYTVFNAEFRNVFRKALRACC
UniProt P21728, whole entry: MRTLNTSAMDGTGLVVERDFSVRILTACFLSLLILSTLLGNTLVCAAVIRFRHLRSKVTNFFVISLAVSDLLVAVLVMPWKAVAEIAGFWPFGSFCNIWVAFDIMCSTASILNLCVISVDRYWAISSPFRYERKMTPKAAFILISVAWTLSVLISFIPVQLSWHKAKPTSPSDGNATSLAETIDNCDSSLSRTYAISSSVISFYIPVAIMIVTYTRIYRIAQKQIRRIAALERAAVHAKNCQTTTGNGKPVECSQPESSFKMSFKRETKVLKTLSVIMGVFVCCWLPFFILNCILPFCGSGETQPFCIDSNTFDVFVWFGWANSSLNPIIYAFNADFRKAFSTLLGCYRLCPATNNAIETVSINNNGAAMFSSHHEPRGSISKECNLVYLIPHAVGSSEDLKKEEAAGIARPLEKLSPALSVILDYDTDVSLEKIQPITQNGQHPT

Assays:
D(1B) dopamine receptor = D(1B) dopamine receptor (Homo sapiens, UniProt P21918); test: Binding affinity to human dopamine D5 receptor expressed in HEKT cells incubated for 90 mins by microbeta counting method; assay type: cell-based
[1] = molecular target: 5-hydroxytryptamine receptor 6 (Homo sapiens, UniProt P50406); test: Displacement of [3H]-LSD from human 5-HT6 receptor expresssed in stable HEK cell membrane incubated for 90 mins by microbeta counting method
D(2) dopamine receptor = D(2) dopamine receptor (Homo sapiens, UniProt P14416); test: Displacement of [3H]-N-Methylspiperone from human dopamine D2 receptor expressed in stable fibroblast cells incubated for 90 mins by microbeta counting method
D(4) dopamine receptor = D(4) dopamine receptor (Homo sapiens, UniProt P21917); test: Displacement of [3H]-N-Methylspiperone from human dopamine D4 receptor expressed in stable HEK cells incubated for 90 mins by microbeta counting method; assay type: cell-based
D(1A) dopamine receptor = D(1A) dopamine receptor (Homo sapiens, UniProt P21728); test: Displacement of [3H]-SCH23390 from human dopamine D1 receptor expressed in HEKT cells incubated for 90 mins by microbeta counting method

Measured: inhibition

CN1CCc2cccc3c2C1Cc1cc2sc(N)nc2cc1-3 (racemic)
< 50%: all assays above

CN1CCc2cccc3c2C1Cc1ccc(NC(N)=O)cc1-3 (racemic)
< 50%: all assays above
